Here are results for 5 compounds from US9045389B2, “Biphenyl derivatives useful as glucagon receptor antagonists” (Janssen Pharmaceutica NV, priority 2011, dated 2015).

Chains of the proteins cited; added tags and fusions are not shown. Residues count along the entry.
UniProt P47871, 26-477: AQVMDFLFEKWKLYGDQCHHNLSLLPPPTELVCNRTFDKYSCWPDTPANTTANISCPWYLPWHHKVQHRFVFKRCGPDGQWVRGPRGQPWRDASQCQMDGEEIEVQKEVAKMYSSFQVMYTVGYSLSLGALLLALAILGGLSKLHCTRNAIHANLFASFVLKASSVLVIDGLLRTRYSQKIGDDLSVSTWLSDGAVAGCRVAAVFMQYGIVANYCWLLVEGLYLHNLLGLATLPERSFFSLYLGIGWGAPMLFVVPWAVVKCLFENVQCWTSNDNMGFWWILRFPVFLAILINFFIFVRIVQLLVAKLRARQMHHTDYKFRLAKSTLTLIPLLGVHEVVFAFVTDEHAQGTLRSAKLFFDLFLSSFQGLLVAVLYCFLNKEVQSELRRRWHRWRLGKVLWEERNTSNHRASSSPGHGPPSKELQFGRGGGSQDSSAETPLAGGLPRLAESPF

Molecules are shown by their SMILES.

Test [1] addresses human glucagon receptor (GCGR) (Homo sapiens (Human), UniProt P47871). In words: Inhibition of 125I-glucagon binding to membranes from HEK293 cells expressing the human glucagon receptor (GCGR). The settings on record: membranes from hGluc-1 HEK293 cells, 125I-glucagon at 0.3 nM, 2 hours at room temperature; IC50 converted to Ki. As for the experimental part:
Inhibition ^125I-Glucagon Binding to Membranes from HEK293 Cells Expressing the Human Glucagon Receptor (GCGR)
Full-length human GCGR (Accession Number: NM000160) subcloned into pcDNA3.1 was stably transfected into HEK293 cells (hGluc-1 HEK) and maintained under G418 selection (500 μg/mL). Cell cultures were maintained in DMEM/F12 media supplemented with 10% FBS and 1% GlutaMax. Membranes were prepared from these cells as follows: cells were harvested from T225 flasks and re-suspended in hypotonic lysis buffer, 50 mM HEPES pH 7.4 supplemented with Complete Protease inhibitors (Boehringer Mannheim, Indianapolis, Ind.). Cells were dounced 20 times on ice and spun at 700×g to remove nuclei and unlysed cells. The resulting pellet was re-suspended in hypotonic lysis buffer and the above step was repeated. Supernatants from the low speed centrifugation were combined and subsequently spun at 100K×g for 1 hr at 4° C. and the resulting pellet was re-suspended in buffer containing 50 mM HEPES pH 7.4 and 10% sucrose and the protein concentration was adjusted at 1 mg/mL as determined in the BCA assay. Membranes were aliquoted and stored at −80° C. The binding assay was performed by a filtration method in a 384 well format. Membranes at a final protein concentration of 6 μg/well were incubated with ^125I-glucagon at 0.3 nM and in the presence of compound for 2 hours at room temperature in a total reaction volume of 40 μL per well. Assay buffer consisted of 50 mM HEPES, pH 7.4, 5 mM MgCl2, 1 mM CaCl2 and 0.2% BSA. 30 μL of the reaction was then transferred to PEI treated filter plates and followed by filter aspiration. Plates were then washed 5× and allowed to dry at room temperature overnight. The next day the bottom of the plate was covered with seal tape and scintillant was added. Total counts retained by the filters were quantified with a Top Count instrument. IC50's were generated by using a non-linear regression macro driven in Excel and converted to K's.

The next test addresses human GCGR (Homo sapiens (Human), UniProt P47871). Kind of test: Cellular functional assay, cAMP readout: glucagon stimulated cAMP in HEK293 cells expressing human GCGR (LANCE TR-FRET). In kind it is cell-based. The method, then:
IC50 Values in Cellular Functional Assays: cAMP Readout
Full-length human GCGR (Accession Number: NM000160) subcloned into pcDNA3.1 was stably transfected into HEK293 cells (hGluc-1 HEK) and maintained under G418 selection (500 μg/mL). Cell cultures were maintained in DMEM/F12 media supplemented with 10% FBS and 1% GlutaMax. Glucagon stimulated cAMP was quantified using LANCE technology as per manufacturer instructions. On the day of the experiment, spent media was removed and cells were washed with Hank's Buffered Saline solution (HBSS) and cells were harvested with non-enzymatic cell dissociation solution, then washed once with HBSS. Cells were re-suspended in stimulation buffer at a concentration of 0.83×10^6 cells/ml and cAMP detection antibody was added. 6 μl/well of this solution was then dispensed in a 384 well plate (cell density 5000 cells/well). Test compound was serially diluted in DMSO and 50 nl were dispensed on top of the cell solution and allowed to incubate for 30 minutes. 6 μl of a 2× glucagon solution (final concentration in assay 100 pM) was then added and the reaction was terminated after 5 minutes with the addition of detection mix. The resulting mixture was incubated, protected from light for 1.5 h. cAMP levels were quantified by TR-FRET in an EnVision instrument against a known standard. IC50's were generated by using a non-linear regression macro driven in Excel and converted to Ki values.

`O=C(O)CCNC(=O)c1ccc(-c2cc(Cl)ccc2CNc2ccc(-c3ccc(Cl)cc3Cl)cc2)cc1F` [Compound 12, 3-(5′-chloro-2′-(((2′,4′-dichloro-[1,1′-biphenyl]-4-yl)amino)methyl)-3-fluoro-[1,1′-biphenyl]-4-ylcarboxamido)propanoic acid]: the values for the Ki (in test [1]; at human GCGR) were 0.24 µM and 1 µM, respectively.
Turning to `O=C(O)CCNC(=O)c1ccc(-c2ccccc2CNc2ccc(-c3ccc(Cl)cc3)cc2)cc1` [Compound 18, 3-(2′-(((4′-chloro-[1,1′-biphenyl]-4-yl)amino)methyl)-[1,1′-biphenyl]-4-ylcarboxamido)propanoic acid], the inhibition constant Ki – broadly, a dissociation constant, usually derived from enzyme kinetics or from competition with a known ligand – worked out at 0.06 µM in test [1] and 0.17 µM on human GCGR.
The like results for `O=C(O)CCNC(=O)c1ccc(-c2cc(Cl)ccc2CNc2ccc(-c3ccc(Cl)cc3)cc2)cc1F` [Compound 10, 3-(5′-chloro-2′-(((4′-chloro-[1,1′-biphenyl]-4-yl)amino)methyl)-3-fluoro-[1,1′-biphenyl]-4-ylcarboxamido)propanoic acid] were, in that order, 0.12 µM and 0.65 µM.
The like results for `Cc1cc(C(=O)NCCC(=O)O)ccc1-c1ccccc1CNc1ccc(-c2ccc(Cl)cc2)cc1` [Compound 7, 3-(2′-(((4′-chloro-[1,1′-biphenyl]-4-yl)amino)methyl)-2-methyl-[1,1′-biphenyl]-4-ylcarboxamido)propanoic acid] were, in that order, 0.045 µM and 0.25 µM.
The like results for `O=C(O)CCNC(=O)c1ccc(-c2cc(Cl)ccc2CNc2ccc(-c3ccc(F)cc3)cc2)cc1F` [Compound 11, 3-(5′-chloro-3-fluoro-2′-(((4′-fluoro-[1,1′-biphenyl]-4-yl)amino)methyl)-[1,1′-biphenyl]-4-ylcarboxamido)propanoic acid] were, in that order, 0.24 µM and 1.6 µM.
